These are literature values, as cited in article PMC11747885, “Potent inhibitors of the human RNA ligase Rlig1 highlights its role in RNA integrity maintenance under oxidative cellular stress” (Chemical Science, 2025).

The target of the data set is human topoisomerase II. Set-up: method as in MedChemExpress. The settings on record: ref MedChemExpress; cited from earlier work.

As to `COc1cccc2c1C(=O)c1c(O)c3c(c(O)c1C2=O)C[C@@](O)(C(=O)CO)C[C@@H]3O[C@H]1C[C@H](N)[C@H](O)[C@H](C)O1.Cl` [Doxorubicin (hydrochloride)], the IC50 was 2670 nM.

In general, IC50 refers to the midpoint of a concentration-inhibition curve.
